Key:
μ-opioid receptor = μ-opioid receptor (Rattus norvegicus, UniProt P33535); experiment: Rat brain μ-opioid receptor binding assay
δ-opioid receptor = δ-opioid receptor (Rattus norvegicus, UniProt P33533); experiment: Rat brain δ-opioid receptor binding assay

Amino acid sequences for entries named in this document (tags omitted).
UniProt P33535, whole entry: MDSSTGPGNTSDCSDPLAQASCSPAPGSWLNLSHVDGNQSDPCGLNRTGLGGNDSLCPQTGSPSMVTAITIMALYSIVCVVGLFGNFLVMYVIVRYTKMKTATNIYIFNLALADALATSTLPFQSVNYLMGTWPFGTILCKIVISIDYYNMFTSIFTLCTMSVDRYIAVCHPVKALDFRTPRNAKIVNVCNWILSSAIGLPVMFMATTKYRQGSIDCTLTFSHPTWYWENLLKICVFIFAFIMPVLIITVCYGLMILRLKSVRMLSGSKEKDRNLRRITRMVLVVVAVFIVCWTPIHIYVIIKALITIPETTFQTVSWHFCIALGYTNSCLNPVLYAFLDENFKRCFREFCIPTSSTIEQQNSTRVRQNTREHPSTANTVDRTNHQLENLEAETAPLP

Compound `CCCN1CCC(N(Cc2cccc(O)c2)c2ccc(C(=O)N(CC)CC)cc2)CC1` [Compound 2, N,N-Diethyl-4-[3-hydroxybenzyl(1-propylpiperidin-4-yl)amino]benzamide] has a Ki (μ-opioid receptor) of 640 nM and a Ki (δ-opioid receptor) of 14.6 nM.
`CCCN1CCC(N(Cc2cccnc2)c2ccc(C(=O)N(CC)CC)cc2)CC1` showed a Ki (δ-opioid receptor) of 599 nM.
`CCN(CC)C(=O)c1ccc(N(Cc2ccccc2)C2CCNCC2)cc1` [Compound 8, N,N-Diethyl-4-[benzyl(piperidin-4-yl)amino]benzamide] showed a Ki (μ-opioid receptor) of no less than 10000 nM and a Ki (δ-opioid receptor) of 71.1 nM.
In the case of `CCCN1CCC(N(Cc2ccccc2)c2ccc(C(=O)N(CC)CC)cc2)CC1` [Compound 7, N,N-Diethyl-4-[benzyl(1-propylpiperidin-4-yl)amino]benzamide], the Ki (μ-opioid receptor) is reported as 901 nM and the Ki (δ-opioid receptor) is reported as 26.2 nM.
For `CCCN1CCC(N(Cc2cccc(Cl)c2)c2ccc(C(=O)N(CC)CC)cc2)CC1`, the Ki (μ-opioid receptor) was 2140 nM and the Ki (δ-opioid receptor) was 50.4 nM.
`CCCN1CCC(N(Cc2ccccc2OC)c2ccc(C(=O)N(CC)CC)cc2)CC1` was tested, and the “δ-Opioid Receptor Binding % Inhibition @ 1 μM” value (δ-opioid receptor; 1 μM test compound, rat forebrain particulate preparation, [3H]DPDPE, 25° C.) was 17%.
`C=CCN1CCC(N(Cc2ccccc2)c2ccc(C(=O)N(CC)CC)cc2)CC1` [Compound 9, N,N-Diethyl-4-[benzyl(1-allylpiperidin-4-yl)amino]benzamide] was tested, and the Ki (μ-opioid receptor) was no less than 10000 nM and the Ki (δ-opioid receptor) was 73 nM.
For `CCN(CC)C(=O)c1ccc(N(Cc2ccccc2)C2CCN(C)CC2)cc1`, the Ki (δ-opioid receptor) was 109 nM.

From patent publication US7576105B2, “Benzyl substituted (piperidin-4-yl)aminobenzamido derivatives” (priority 2002, dated 2009)
